This data set can be described thus: Metabolic stability in human liver S9 fraction assessed as half life at 1 micromol/L in presence of UDPGA measured upto 24 hrs by LC-MS/MS analysis. In kind it is ADME, subcellular. The conditions noted are these: s9, 24 h, 1 µM, dose 1 µmol/L. The gist of the method: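 Compound was incubated in human liver S9 fraction supplemented with the cofactors NADPH (Phase I oxidation) and UDPGA (Phase II glucuronidation). Percentage of parent remaining was followed over the incubation, and data are mean ± SD.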

For the molecule `O=c1ccc2ccc(O)cc2o1` [UMBELLIFERONE], the t1/2 was determined as 3 min.

The record behind these values is ChEMBL document CHEMBL5143750, “Bisubstrate Inhibitors of Severe Acute Respiratory Syndrome Coronavirus-2 Nsp14 Methyltransferase” (ACS Med Chem Lett, 2022).
